Experimental data taken from patent publication US7097990B2, “Method of screening cell death inhibitor” (Astellas Pharma Inc., priority 2001, dated 2006).

Tested on: human LTRPC2 protein
Experiment: 86Rb+ efflux: activation of human LTRPC2 protein by PARP activator in transfected CHO dhfr- cells
Details: MNNG 1 mmol/liter or H2O2 0.06%, room temperature 30 minutes; control without MNNG or H2O2

In the case of `CN(N=O)C(=N)N[N+](=O)[O-]`, the “residual activity of 86Rb+ in comparison with the control cells” value is reported as 35.6%.
